Source: patent publication US20240165261A1, “MEANS AND METHOD FOR CYTOSOLIC DELIVERY” (Universiteit Gent, priority 2021, published 2024)

Test system: human T cells

Substance: dextran methacrylate (MA)-co-TMAEMA nanogels [Dex-NG DS 5.9]
- cell viability: > 50%
